{"sequences": {"note": "Amino acid sequences for entries named in this document (tags omitted).", "UniProt P42866, whole entry, looked up": "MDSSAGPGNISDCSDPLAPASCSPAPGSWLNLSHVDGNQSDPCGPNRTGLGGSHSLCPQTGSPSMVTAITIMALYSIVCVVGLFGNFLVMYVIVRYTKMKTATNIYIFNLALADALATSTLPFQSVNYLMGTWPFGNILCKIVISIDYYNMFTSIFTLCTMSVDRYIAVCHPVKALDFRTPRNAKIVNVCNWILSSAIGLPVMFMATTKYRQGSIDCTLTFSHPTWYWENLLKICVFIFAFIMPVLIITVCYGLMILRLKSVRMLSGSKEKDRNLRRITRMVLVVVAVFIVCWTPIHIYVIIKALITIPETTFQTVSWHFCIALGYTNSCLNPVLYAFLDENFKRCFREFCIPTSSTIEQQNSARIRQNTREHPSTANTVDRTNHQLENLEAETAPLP"}, "source": "patent US20240208984A1", "about": "“BIVALENT LIGANDS TO UNDERSTAND DIMERIZATION OF THE MU OPIOID RECEPTOR AND THE CHEMOKINE RECEPTOR CCR5 IN NEUROLOGICAL DISORDERS” (priority 2021, published 2024)", "biological_target": "mouse MOR (Mus musculus (Mouse), UniProt P42866)", "experiment": "[35S]GTPγS functional assay in mMOR-CHO", "format": "biochemical", "details": "[35S]GTPγS binding, mean ± SEM", "experimental": "MOR [^35S]GTPγS functional studies. The [^35S]GTPγS functional assay was carried out in mMOR-CHO cells to define the relative efficacy of these bivalent ligands to activate the MOR as previously illustrated.\n[^35S]-GTPγS functional assays was conducted in the mouse MOR cell membrane used for the receptor binding assays. Membrane protein (10 μg) was incubated with varying concentrations of test compounds, GDP (15 μM), and 80 μM [35S]-GTPγS in assay buffer for 1 h at 30° C. Nonspecific binding was determined with 10 μM unlabeled GTPγS. […] After incubation, the bound radioactive ligand was separated from the free radioligand by filtration through a GF/B glass fiber filter paper and rinsed three times with ice-cold wash buffer (50 mM Tris-HCl, pH 7.2) using the Brandel harvester. The results were determined by utilizing a scintillation counter. All assays were determined in triplicate and repeated at least three times. […] Calcium Mobilization Assay in mMOR-CHO Cells", "note": "Values joined by “and” are separate entries in the source; they are usually repeats but may differ in a detail not shown here. Identical values can stand only once.", "data": [{"smiles": "CC(C)c1nnc(CCNC(=O)COCC(=O)NCCCCCCCNC(=O)COCC(=O)NC2CC[C@@]3(O)[C@H]4Cc5ccc(O)c6c5[C@@]3(CCN4CC3CC3)[C@H]2O6)n1C1CC2CCC(C1)N2CC[C@H](NC(=O)C1CCC(F)(F)CC1)c1ccccc1", "note": "(stereo partly shown) [VZMC013]", "values": [{"measurement": "% Emax of DAMGO", "value": "9.22% and 9.22 ± 0.94^a %"}]}]}
